The entries are a selection whose mix differs from that of the whole data set. Activity calls are given as the source filed them.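 The calls were made as follows: active = inhibition of cGAS enzyme activity at or above 60%; inactive = the rest.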
These molecules were tested against Cyclic GMP-AMP synthase (Mus musculus) (UniProt Q8C6L5) (assay: inhibitors of Mus musculus cyclic GMP-AMP synthase, initial high-throughput assay, cell-free, RapidFire MS (AID 1259397;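 also: enzyme stimulated by 45 bp dsDNA with ATP and GTP substrates; cGAMP share of summed cGAMP plus half ATP and half GTP signals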)). Conditions: recombinant mouse cGAS, cGAMP by RapidFire MS; at 12.5 µM; hits give high values.

Sequences of proteins named here, by UniProt entry; tags and fusion partners are left off.
UniProt Q8C6L5, whole entry: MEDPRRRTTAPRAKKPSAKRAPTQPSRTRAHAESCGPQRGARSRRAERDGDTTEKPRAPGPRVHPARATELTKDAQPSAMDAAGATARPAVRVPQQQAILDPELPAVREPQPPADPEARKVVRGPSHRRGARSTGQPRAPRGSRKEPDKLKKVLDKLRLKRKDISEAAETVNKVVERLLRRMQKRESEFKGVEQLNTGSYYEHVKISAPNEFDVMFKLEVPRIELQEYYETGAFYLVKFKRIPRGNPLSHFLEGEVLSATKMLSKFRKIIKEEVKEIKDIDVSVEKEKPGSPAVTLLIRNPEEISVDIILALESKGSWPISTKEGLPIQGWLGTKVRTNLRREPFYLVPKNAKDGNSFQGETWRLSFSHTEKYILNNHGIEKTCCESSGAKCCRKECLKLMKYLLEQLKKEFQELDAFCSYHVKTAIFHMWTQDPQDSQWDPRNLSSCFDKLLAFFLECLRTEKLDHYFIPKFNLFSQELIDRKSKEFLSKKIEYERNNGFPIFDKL

Structure (SMILES)	inhibition
CN(CCCl)CCCl	inactive: 26.4%
